Test results taken from publication PMC4162805 (European journal of medicinal chemistry, 2014).

Amino acid sequences for entries named in this document (tags omitted).
UniProt P35372, whole entry, species assumed: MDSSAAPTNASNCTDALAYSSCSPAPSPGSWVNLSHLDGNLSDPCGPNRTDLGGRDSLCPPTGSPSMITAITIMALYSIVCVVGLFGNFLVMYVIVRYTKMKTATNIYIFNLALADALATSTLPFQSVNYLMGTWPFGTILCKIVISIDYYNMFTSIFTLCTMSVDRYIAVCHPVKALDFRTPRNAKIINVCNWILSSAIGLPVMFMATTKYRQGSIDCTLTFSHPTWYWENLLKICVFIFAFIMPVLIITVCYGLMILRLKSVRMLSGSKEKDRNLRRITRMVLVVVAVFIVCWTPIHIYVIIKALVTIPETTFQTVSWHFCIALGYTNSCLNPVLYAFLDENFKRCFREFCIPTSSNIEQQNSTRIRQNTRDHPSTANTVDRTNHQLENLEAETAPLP

Target: μ-opioid receptor (MOR) (Homo sapiens, UniProt P35372)
Assay: Radioligand binding at MOR against [3H]DAMGO

Compound | fold increased MOR affinity compared to 4a (vs 4a) [fold] | affinity for MOR (in words)
COC(=O)[C@@H]1C[C@H](OC(=O)/C=C/c2ccccc2)C(=O)[C@H]2[C@@]1(C)CC[C@H]1C(=O)O[C@H](c3ccoc3)C[C@]21C [5a, 2-O-Cinnamoylsalvinorin B] | 18 | 
COC(=O)[C@@H]1C[C@H](OC(=O)/C=C/c2cc(OC)c(OC)c(OC)c2)C(=O)[C@H]2[C@@]1(C)CC[C@H]1C(=O)O[C@H](c3ccoc3)C[C@]21C [5f, 2-O-(3″,4″,5″-Trimethoxycinnamoyl)salvinorin B] |  | no appreciable affinity
